Source: patent publication US20230257727

T1: Target peptide labeled with 5-nitro isatoic anhydride (5-nitro-2-aminobenzamide-AAGVAMPGAEDDVVGSGSK(N3))
T1 chain: AAGVAMPGAEDDVVGSGSK

T2: Target peptide labeled with succinic anhydride (succinic acid-labeled AAGVAMPGAEDDVVGSGSK(N3))
T2 chain: AAGVAMPGAEDDVVGSGSK

T3: 2-aminobenzamide-AAGVAMPGAEDDVVGSGSK(N3)
T3 chain: AAGVAMPGAEDDVVGSGSK

B1: Modified cleavase N191T/R196H/N306A/D650G (SEQ ID NO: 36) (protein)
chain: GEGMWVPQQLPEIAGPLKKAGLKLSPQQISDLTGDPMGAVVALGGCTASFVSPNGLVVTNHHCAYGAIQLNSTAENNLIKNGFNAPTTADEVSAGPNARVFVLDEITDVTKDAKAAIAAAGDDALARTKALEAFEKKLIADCEAEAGFRCRLYSFSGGNTYRLFKNLEIKDVRLAYAPPGSVGKFGGDIDTWMWPHHTGDFAFYRAYVGKDGKPAAFSKDNVPYQPKHWLKFADQPLGAGDFVMVAGYPGSTNRYALAAEFDNTAQWTYPTIARHYKNQIAMVEAAGKQNADIQVKYAATMAGWNATSKNYDGQLEGFKRIDAAGQKLREEAAVLGWLKGQGAKGQPALDAHAKLLDLLEQSKATRDRDLTLALFNNTAMLGSATQLYRLSIEREKPNAERESGYQERDLPAIEGGLKQLERRYVAAMDRQLQEYWLNEYIKLPADQRVAAVDAWLGGNDAAAVKRALDRLAGTKLGSTEERLKWFAADRKAFEASNDPAIQYAVAVMPTLLKLEQERKTRAGENLAARPVYLQALADYKKSQGEFVYPDANLSLRITFGNVMGYAPKDGMEYTPFTTLEGVVAKETGQDPFDSPKALLDAVAAKRYGGLEDKRIGSVPVNYLSDLDITGGNSGSPVLDAHGKLVGLAFGGNWESVSSNWVFDPKMTRMIAVDGRYLRWIMQEVYPAPQLLKEMNVGK
B2: Modified cleavase N191S/R196H/N306A/D650G (SEQ ID NO: 35) (protein)
chain: B1 chain with T191S
B3: Modified cleavase N191M/R196H/N306A/D650G (SEQ ID NO: 37) (protein)
chain: B1 chain with T191M
B4: Modified cleavase N191S/N306G/D650S (SEQ ID NO: 39) (protein)
chain: B1 chain with T191S, H196R, A306G, G650S
B5: Modified cleavase N191V/N306A/D650S (SEQ ID NO: 38) (protein)
chain: B1 chain with T191V, H196R, G650S
B6: Modified cleavase N191C/W192L/N306R/N310D/G651Y/S655G/V656G (SEQ ID NO: 32) (protein)
chain: B1 chain with T191C, W192L, H196R, A306R, N310D, G650D, G651Y, S655G, V656G
B7: Modified cleavase N191R/W192L/N306S/N310L/G651T/S655T/V656S (SEQ ID NO: 34) (protein)
chain: B1 chain with T191R, W192L, H196R, A306S, N310L, G650D, G651T, S655T, V656S
B8: unnamed (protein)
chain: B1 chain with T191C, W192L, H196K, A306R, N310D, G650D, G651Y, S655G, V656G
B9: Modified cleavase N191F/W192F/N306R/N310G/G651H/V656E (SEQ ID NO: 33) (protein)
chain: B1 chain with T191F, W192F, H196R, A306R, N310G, G650D, G651H, V656E

Molecular target: T1, Target peptide labeled with 5-nitro …
For B1, the “Product Removed by Modified Cleavase” value was 5-nitro-2-aminobenzamide-P1.
For B2, the “Product Removed by Modified Cleavase” value was 5-nitro-2-aminobenzamide-P1.
With B3 the “Product Removed by Modified Cleavase” value was 5-nitro-2-aminobenzamide-labeled P1.

Molecular target: T2, Target peptide labeled with succinic …
For B4, the “Product Removed by Modified Cleavase” value was “Succinic acid-labeled P1”.
With B5 the “Product Removed by Modified Cleavase” value was “Succinic acid-labeled Pl”.

Molecular target: T3, 2-aminobenzamide-AAGVAMPGAEDDVVGSGSK(N3)
B6 was tested, and the “Product Removed by Modified Cleavase” value was 2-aminobenzamide-P1.
In the case of B7, the “Product Removed by Modified Cleavase” value is reported as 2-aminobenzamide-P1.
For B8, the “Product Removed by Modified Cleavase” value was 2-aminobenzamide-P1.
In the case of B9, the “Product Removed by Modified Cleavase” value is reported as 2-aminobenzamide-P1.

Changes are numbered by the printed parent chain. In names and notes the source's numbering stands.
